The record followed here is patent publication US20250320250A1, “PHARMACEUTICAL COMPOSITIONS FOR THE TREATMENT OF VISCERAL PAIN” (Ironwood Pharmaceuticals, Inc., priority 2021, published 2025).

A short description of data set [1]: Solubility of the peptide at ambient temperature. The class given is physicochemical. The text has this:
Briefly the peptide is a 13 amino acid peptide with a primary amino acid of Cys1-Cth2-Glu3-Leu4-Cys5-Cys6-Asn7-Val8-Ala9-Cys10-Tyr11-Gly12-Cys13 (SEQ ID NO: 1), wherein Cth is a cystathionine; wherein Cys1 and Cys6; and Cys5 and Cys13, are connected by disulfide bonds; wherein Cth2 and Cys10 are connected by a thioether bond; and wherein the peptide has an acetylated N-terminus, and an unmodified C-terminus (hereinafter referred to as “the peptide”).

Data set [2] is described as follows: Stability and drug solubility of the peptide at pH 7.0 (foam formulation development). Format: physicochemical. The text has this:
The following considerations were taken into account when developing the pharmaceutical rectal foam composition. […] From this, development work settled on the pH range of 6.5 to 7.5. To achieve this pH range for the bulk product; accordingly, a phosphate buffer system was chosen.

Data set [3] can be described thus: Absorption of the peptide (stated property).
A short description of data set [4]: Dissociation constants (pKa), pH-metric / UV-metric. Format: physicochemical.

Read-outs that look alike come from different tables or passages of the source. Bounds are passed on as bounds.

In the case of `CC(=O)N[C@H]1CSSC[C@@H]2NC(=O)[C@@H]3CSSC[C@@H](C(=O)O)NC(=O)CNC(=O)[C@H](Cc4ccc(O)cc4)NC(=O)[C@H](CSCC[C@H](NC1=O)C(=O)N[C@@H](CCC(=O)O)C(=O)N[C@@H](CC(C)C)C(=O)N3)NC(=O)[C@H](C)NC(=O)[C@H](C(C)C)NC(=O)[C@H](CC(N)=O)NC2=O` [the peptide, Ac-Cys1-Cth2-Glu3-Leu4-Cys5-Cys6-Asn7-Val8-Ala9-Cys10-Tyr11-Gly12-Cys13-OH], the solubility entry in data set [1] (Acetonitrile) is “Insoluble”; in data set [1] (Dimethyl sulfoxide, read-out: Solubility), above 1000 µg/mL; in data set [1] (Hydrochloric acid (0.01N), read-out: Solubility), above 1000 µg/mL; in data set [1] (Methyl tert-butyl ether) it was “Insoluble”; in data set [1] (Phosphate buffer (pH 7.0), read-out: Solubility), above 1000 µg/mL; in data set [1] (Water, read-out: Solubility), above 1000 µg/mL. In data set [2], this compound yielded a solubility above 26400 µg/mL. For the same compound, the stability result in data set [2] is on record as “stable”. Further, the absorption result in data set [3] is listed as “minimally absorbed”. Also, the pKa was found to be 10.1 in data set [4] (UV-metric, read-out: Dissociation constant pKa 3); 3.87 in data set [4] (pH-metric, read-out: Dissociation constant pKa 1); 4.92 in data set [4] (pH-metric, read-out: Dissociation constant pKa 2).
